Experimental data: ChEMBL document CHEMBL6092210, “Synthesis, in vitro and in vivo biological evaluation of novel dual compounds targeting both acetylcholinesterase and serotonergic 5-HT4 receptors with potential interest in the treatment of Alzheimer's disease” (Eur J Med Chem, 2024)

By UniProt entry, the sequences of proteins in these tests, tags left out. Where a name states a change or a piece, a line headed by the entry shows the natural chain unless it says otherwise.
UniProt Q13639: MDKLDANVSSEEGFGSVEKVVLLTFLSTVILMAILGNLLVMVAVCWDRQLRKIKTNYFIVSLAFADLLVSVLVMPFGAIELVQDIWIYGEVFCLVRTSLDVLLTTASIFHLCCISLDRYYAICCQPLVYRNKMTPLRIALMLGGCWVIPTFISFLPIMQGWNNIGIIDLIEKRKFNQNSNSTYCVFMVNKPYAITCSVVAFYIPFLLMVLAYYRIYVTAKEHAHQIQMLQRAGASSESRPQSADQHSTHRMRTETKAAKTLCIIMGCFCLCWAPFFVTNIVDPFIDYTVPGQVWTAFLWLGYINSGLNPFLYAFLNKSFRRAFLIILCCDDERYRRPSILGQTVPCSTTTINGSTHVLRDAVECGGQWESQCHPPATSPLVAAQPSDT

Target: 5-hydroxytryptamine receptor 4 (Homo sapiens, UniProt Q13639)
Test: Agonist activity at human recombinant 5HT4 receptor transiently transfected in human COS7 cells using p-nitrophenyl phosphate disodium hexahydrate as substrate assessed as induction of sAPPalpha release by measuring maximum efficacy incubated for 30 mins by microplate reader analysis relative to control
Format: functional, cell-based

**Q.** Which Emax does the source give for CCCCN1CCC(CCC(=O)c2cc(Cl)c(N)cc2OC)CC1 here?
**A.** Its Emax is 23.5%.
